These are literature values, as cited in PMC4896453 (PLoS ONE, 2016).

The structures appear in SMILES notation.

For data set [1], the system named is rat. The settings on record: rat models; cited from earlier work.
Data set [2] relates to rat. The settings on record: rat models; cited from earlier work. This is another data set of the same source.

As to `CN(C)[C@]1(c2ccccc2)CC[C@]2(CC1)OCCc1c3cc(F)ccc3[nH]c12`, the “effect on motor coordination or respiration” value in the data set with rat [1] is “did not disrupt motor coordination or respiration”. In addition, in the data set on rat [2], the time to tolerance is 26 days.
